This is an account of results in patent publication US20030229066A1, “Novel heterocyclic urea derivatives and their use as dopamine D3 receptor ligands” (priority 2001, published 2003).

By UniProt entry, the sequences of proteins in these tests, tags left out.
UniProt P35462, whole entry: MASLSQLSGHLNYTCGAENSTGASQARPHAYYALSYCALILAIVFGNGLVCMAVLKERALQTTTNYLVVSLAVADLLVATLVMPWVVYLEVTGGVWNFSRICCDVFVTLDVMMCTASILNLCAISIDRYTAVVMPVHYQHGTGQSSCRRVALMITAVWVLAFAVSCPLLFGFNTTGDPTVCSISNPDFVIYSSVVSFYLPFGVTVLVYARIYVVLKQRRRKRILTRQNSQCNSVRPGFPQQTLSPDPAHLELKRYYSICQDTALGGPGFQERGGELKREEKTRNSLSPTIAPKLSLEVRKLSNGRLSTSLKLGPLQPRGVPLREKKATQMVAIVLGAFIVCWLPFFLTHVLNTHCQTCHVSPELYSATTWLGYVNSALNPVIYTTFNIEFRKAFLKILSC

In the first experiment the target is cloned human dopamine D3 receptors (Homo sapiens, UniProt P35462). As to the kind of experiment: [N-Methyl-3H]Spiroperidol binding to cloned human dopamine D3 receptors. As to conditions: read-out: D3 Ki. From the text:
[N-Methyl-^3H]Spiroperidol Binding to Cloned Human Dopamine D3 Receptors
This assay measures the in vitro activity of compounds on cloned human dopamine (D3) receptors and predicts the direct dopamine-blocking properties of putative neuropsychiatric agents at human dopamine D3 receptors.
The D3 gene was isolated from a human striatal cDNA library (Stratagene). The gene was sequenced and sub-cloned into the expression vector RC/RSV (Invitrogen). CHO (Chinese Hamster Ovary) cells were stably transfected with 10 μg of the D3/RSV plasmid using the DOTAP method from Boehringer Mannheim and 72 clones that were G418 resistant were isolated. Using mRNA and binding displacement data a single high expressing clone was identified. This clone was then grown in large batches for the purpose of developing a 96 well format assay.
The cells are harvested into 250 ml centrifuge tubes with 100 volumes of cold phosphate buffered saline (PBS) and spun down (1200×G for 10 min at 4° C.). The medium is removed and 100 ml PBS are added to each centrifuge tube, cells are resuspened and spun down again. The PBS is removed and the final pellet is homogenized in an appropriate volume of 10% DMSO with a polytron on ice at a medium setting.
For Kj determinations: [^3H]NMSP is made up to a concentration of 2.7 nM in buffer 2b, such that when 150 μl is added to each tube a final concentration of 0.4 nM is attained in the 1 ml assay. Samples of total CPM added are taken for each experiment to calculate the total ligand concentration.
5. S(-)-Eticlopride is obtained from Research Biochemicals International (RBI catalog number E-101). A refrigerated stock (good for up to a month) solution of S(-)-eticlopride is made at a concentration of 30 μM in buffer 2b. One hundred microliters are added to 3 wells for the determination of nonspecific binding (this yields a final concentration of 3 μM in the 1 ml assay).
For most assays, a 100 μM stock solution of the test compound is made up in a suitable solvent (usually <0.1% acetic acid) and serially diluted with buffer 2b, such that when 100 μl of drug is combined with the total 1 ml assay, final concentrations ranging from 10^−5-10^−8 M are attained. Characteristically eight concentrations are studied for each assay; however, higher or lower concentrations may be used, depending on the potency of the drug.
The 96-Well Packard Unifilters GF/B are incubated for >1 h at 25° C. in 0.1% polyethylamine (from 3,b). The cold tissue is added last and mixed on a orbital shaker for a few seconds and is then incubated at 37° C. for 30 min in a shaking water bath. The assay is stopped by rapid filtration through Packard Unifilter plates. The filter membranes are then washed with 15 ml of ice-cold 0.05 M Tris buffer. The filters are then dried (˜15 min under a heat lamp or incubated for 15 min in a 60° C. oven) and a bottom seal is applied. Then 40 μl of Packard Microscint 20 scintillation cocktail is added and a permanent topseal (Type P) is applied and heat sealed. The plates are then shaken on an orbital shaker for 1 h and placed in the Packard Topcount and counted for at least 5 minutes for each point.
Specific binding is defined as the difference between total binding and the binding in the presence of 3 μM S-(-)-eticlopride. Total binding is approximately 10% of the total added ligand. Cheng-Prusoff determination (Kj's) are performed using Prism software using a one-site competition curve analysis where the top and the bottom of the non-linear regression are held constant at 0% and 100% percent inhibition. The percent inhibition at each drug concentration is the mean of duplicate determinations.
For `CN(C)CCCNC(=O)NC[C@@H]1C[C@H]1CN1CCN(c2csc3cc(C(F)(F)F)ccc23)CC1`, the Ki amounted to 0.88 nM.

Regarding `O=C(NCCCn1ccnc1)NC[C@@H]1C[C@H]1CN1CCC(c2noc3ccsc23)CC1` (relative stereo), the Ki turned out to be 66.5 nM. On the same count and under the same terms, next, `O=C(NCCCN1CCOCC1)NC[C@@H]1C[C@H]1CN1CCN(c2csc3cc(C(F)(F)F)ccc23)CC1`: 8.12 nM. Same read-out and setting: next, `CCOc1ccc(NC(=O)NCCCCN2CCCN(c3csc4cc(F)ccc34)CC2)cc1`: 0.0636 nM; `O=C(NCCOc1ccccc1)NC[C@@H]1C[C@H]1CN1CCN(c2csc3cc(C(F)(F)F)ccc23)CC1`: 34.4 nM; `O=C(NCCN1CCOCC1)NC[C@@H]1C[C@H]1CN1CCC(c2noc3ccsc23)CC1` (relative stereo): 172 nM. The same measure, in the same setting: next, `O=C(NCCCCN1CCCN(c2csc3cc(F)ccc23)CC1)Nc1cc(C(F)(F)F)ccc1Cl`: 6.51 nM; `O=C(NCCCCN1CCCN(c2noc3ccsc23)CC1)Nc1cccc(Br)c1`: 142 nM; `O=C(NC[C@@H]1C[C@H]1CN1CCCN(c2csc3cc(F)ccc23)CC1)Nc1ccc(OC(F)(F)F)cc1` (relative stereo): 137 nM. `O=C(NC[C@@H]1C[C@H]1CN1CCN(c2csc3cc(C(F)(F)F)ccc23)CC1)Nc1cccc2ccccc12`: the Ki is 21.9 nM.

The same experiment, now with this note: read-out: d3Ki; Table III.
As for `O=C(NCCCCN1CCN(c2c(Cl)sc3cc(F)ccc23)CC1)NC12CC3CC(CC(C3)C1)C2`, the Ki came out at 17.1 nM. As to `CCc1ccc(NC(=O)NCCCCN2CCC(c3noc4ccsc34)CC2)cc1` [816561], the Ki is 24.2 nM.
